This test concerns CD31. Kind of test: CD31 immunofluorescence in lung sections of treated SS mice. Particulars: KYC 3 mg/kg/d, 3 weeks. The protocol:
The right main bronchus was ligated with silk at the carina and snap-frozen in liquid nitrogen for immunoblot analysis after resection below the ligature. The trachea was then cannulated with an Instech Solomon (20G) stainless steel feeding tube (Plymouth Meeting, PA). After the trachea was securely ligated with silk, the left lobe was inflated with 10% neutral buffered formalin at 25 cm-H2O (2.4 kPa). After 1 h, the fixed lung was stored in 10% buffered formalin for 24 h and then embedded in paraffin for histology. Lung sections (5 um) were mounted on SuperFrost Plus-coated slides (Denville Scientific, Metuchen, NJ). Slides were deparaffinized, and sections stained with hematoxylin and eosin (H&E; Sigma, St. Louis, MO; catalog #MHS16 and HT110116) or immunostained for CD31 (R&D Systems, Minneapolis, MN; Catalog #AF3628) and GSNOR (Proteintech Group, Rosemont, IL; Catalog #11051-1-AP) for co-localization studies. Four to five immunofluorescence images were randomly captured for each lung section, the fluorescence intensities were analyzed for outliers and then averaged, and the average intensity was plotted as a single data point for each mouse. Protein SNOs were analyzed by Pierce S-Nitrosylation Western Blot Kit (Thermo Fisher, Milwaukee, WI; Catalog #90105). All other mentioned reagents and chemicals were purchased from Thermo Fisher (Milwaukee, WI). […]

As for `CC(=O)N[C@@H](CCCCN)C(=O)N[C@@H](Cc1ccc(O)cc1)C(=O)N[C@@H](CS)C(N)=O`, the “CD31+ cell staining difference from untreated AA mice” value is given as ≤ 20%.

The record behind these values is patent publication US20260382690A1, “Dual-Domain Peptide for Depleting HMGB1 from the Circulation via Liver HSPG System” (published 2026).
